For this assay, the target named is cdc2/cyclinB. Description: cdc2/cyclinB kinase inhibition. Format: biochemical.

Broadly, the IC50 is the midpoint of a concentration-inhibition curve.

The compound `COc1ccc(CNc2nc(N(CCN(C)C)Cc3ccccc3)nc3c2ncn3C(C)C)cc1` [NG-40] gave an IC50 of 600 nM.

Values taken from patent US6803371B2, “Purine inhibitors of protein kinases, G proteins and polymerases” (The Regents of the University of California, priority 1997, dated 2004).
